Test results reported in patent US12636270B2, “Levothyroxine liquid formulations” (Fresenius Kabi USA, LLC, priority 2016, dated 2026).
Read-outs that look alike come from different tables or passages of the source.

Key:
[1] = 20 mcg/mL, tromethamine 10 mg/mL, normal saline
Method: Separate samples containing levothyroxine sodium at a concentration of 20 mcg/mL, tromethamine at a concentration of 10 mg/mL in normal saline (0.9% NaCl in water) were adjusted to various pH levels. One sample additionally contained hydroxypropyl (HP) β-cyclodextrin at a concentration of 10 mg/mL. 5 mL of each sample was filled into 10 cc amber tubing vials, and the vials were stoppered with 20 mm stoppers under nitrogen. The samples were stored at temperatures of 25° C., 40° C. and 55° C. The samples stored at 55° C. were analyzed by HPLC at 1 and 4 weeks (W) of storage. The samples stored at 40° C. were analyzed by HPLC at 4 W and 3 months (M) of storage. The samples stored at 25° C. were analyzed by HPLC at 3M of storage.
The HPLC conditions were as follows: • Column: Waters […]™ C8 (5 μm, 4.6×150 mm) HPLC column • Mobile Phase A: Sodium heptanesulfonate/Acetonitrile/Water/Methanol/H3PO4 (4.023 g/800 mL/1600 mL/1600 mL/4 mL) • Mobile Phase B: Sodium heptanesulfonate/Acetonitrile/Water/Methanol/H3PO4 (2.013 g/1000 mL/100 mL/900 mL/2 mL) • Diluent: 0.01 N NaOH • Column temperature: 25° C. • Flow rate: 1.5 mL/min • Injection volume: 40-200 μL • Autosampler temperature: 5° C. • Detection: UV at 225 nm • Separation mode: Gradient Gradient Program: […]
The results for liothyronine, largest unknown impurity, and total impurities as determined by peak area percent are set forth in Table 1.

[2] = 4 W, 20 mcg/mL, tromethamine 10 mg/mL, 5.4 mg/mL sodium chloride in water
Method: (§1) Separate samples containing 20 mcg/mL levothyroxine sodium, 10 mg/mL tromethamine, 5.4 mg/mL sodium chloride, and sodium iodide at a concentration of 280 mcg/mL, 140 mcg/mL, or 6 mcg/mL in water were adjusted to various pH levels. 5 mL of each sample was filled into 10 cc flint molded vials, and the vials were stoppered with 20 mm stoppers under nitrogen.
The HPLC conditions were as follows: • Column: ACE Excel 3 C18-PFP, 4.6×150 mm HPLC column • Mobile Phase A: Sodium heptanesulfonate/Acetonitrile/Water/Methanol/H3PO4 (4.0 g/800 mL/1600 mL/1600 mL/4.0 mL) • Mobile Phase B: Sodium heptanesulfonate/Acetonitrile/Water/Methanol/H3PO4 (4.0 g/2000 mL/200 mL/1800 mL/4.0 mL) • Diluent: 0.01 N NaOH • Column temperature: 25° C. • Flow rate: 1.5 mL/min • Injection volume: 80 μL • Autosampler temperature: 5° C. • Detection: UV at 225 nm • Separation mode: Gradient Gradient Program: […]

[3] = 25° C., 20 mcg/mL, tromethamine 10 mg/mL, 5.4 mg/mL sodium chloride in water
Method: as §1
The samples also were stored at temperatures of 25° C. or 40° C. for 2M or 4M prior to analysis by HPLC.
The HPLC conditions were as follows: • Column: Phenomenex Kinetex 2.6 μm C18, 4.6×150 mm HPLC column • Mobile Phase A: 0.05 M Sulfamic Acid, pH 2.0 • Mobile Phase B: Acetonitrile • Diluent: 10% Mobile Phase A in Methanol: Acetonitrile: Mobile Phase A (1000 mL: 300 mL: 700 mL) • Column temperature: 27° C. • Flow rate: 1.2 mL/min • Injection volume: 50 μL • Autosampler temperature: 25° C. • Detection: UV at 225 nm • Separation mode: Gradient Gradient Program: […]

With `N[C@@H](Cc1cc(I)c(Oc2cc(I)c(O)c(I)c2)c(I)c1)C(=O)[O-].[Na+]` [Levothyroxine Na, 4-(4-hydroxy-3,5-diiodophenoxy)-3,5-diiodo-L-phenylalanine sodium] as the compound, how does the “% Liothyronine” value ([1]; 40° C., 3 M, pH 9.5) read?
Its value is 1.56%.

What about the “% Liothyronine” value ([1]; 40° C., 3 M, pH 10) of the same compound?
The value was 0.87%.

And the “% Liothyronine” value ([1]; 55° C., 4 W, pH 9.5)?
The value was 1.7%.

And the “% Liothyronine” value ([2]; 25° C., NaI 6 mcg/mL, pH 10.5)?
The value was 0.25%.

What about the “% Liothyronine” value ([2]; 25° C., NaI 140 mcg/mL, pH 9.5) of the same compound?
The value was 0.28%.

What about the “% Liothyronine” value ([2]; 25° C., NaI 140 mcg/mL, pH 10) of the same compound?
Its value is 0.27%.

And the “% Liothyronine” value ([2]; 25° C., NaI 140 mcg/mL, pH 10.5)?
Its value is 0.26%.

What about the “% Liothyronine” value ([2]; 25° C., NaI 280 mcg/mL, pH 9.5) of the same compound?
Its value is 0.28%.

What about the “% Liothyronine” value ([2]; 25° C., NaI 280 mcg/mL, pH 10) of the same compound?
The value was 0.26%.

What about the “% Liothyronine” value ([2]; 25° C., NaI 280 mcg/mL, pH 10.5) of the same compound?
Its value is 0.26%.

And the “% Liothyronine” value ([2]; 55° C., NaI 6 mcg/mL, pH 10.5)?
Its value is 0.87%.

What about the “% Liothyronine” value ([2]; 55° C., NaI 140 mcg/mL, pH 9.5) of the same compound?
Its value is 1.74%.

What about the “% Liothyronine” value ([2]; 55° C., NaI 140 mcg/mL, pH 10) of the same compound?
Its value is 1.06%.

What about the “% Liothyronine” value ([2]; 55° C., NaI 140 mcg/mL, pH 10.5) of the same compound?
Its value is 0.74%.

And the “% Liothyronine” value ([2]; 55° C., NaI 280 mcg/mL, pH 10)?
Its value is 1.06%.

What about the “% Liothyronine” value ([2]; 55° C., NaI 280 mcg/mL, pH 10.5) of the same compound?
Its value is 0.71%.

What about the “% Liothyronine” value ([3]; 2 M, NaI 6 mcg/mL, pH 10.5) of the same compound?
The value was 0.26%.

What about the “% Liothyronine” value ([3]; 2 M, NaI 140 mcg/mL, pH 10) of the same compound?
Its value is 0.25%.

What about the “% Liothyronine” value ([3]; 2 M, NaI 280 mcg/mL, pH 9.5) of the same compound?
Its value is 0.28%.

And the “% Liothyronine” value ([3]; 4 M, NaI 6 mcg/mL, pH 10.5)?
Its value is 0.25%.

And the “% Liothyronine” value ([3]; 4 M, NaI 140 mcg/mL, pH 10)?
Its value is 0.28%.

What about the “% Liothyronine” value ([3]; 4 M, NaI 140 mcg/mL, pH 10.5) of the same compound?
Its value is 0.26%.

And the “% Liothyronine” value ([3]; 4 M, NaI 280 mcg/mL, pH 10)?
Its value is 0.28%.

What about the “% Liothyronine” value ([3]; 4 M, NaI 280 mcg/mL, pH 10.5) of the same compound?
The value was 0.25%.
